Data reported in PubChem BioAssay AID904 (National Center for Advancing Translational Sciences (NCATS), 2007).
The entries are a selection whose mix differs from that of the whole data set. Results filed as inconclusive are left out. Calls of active or inactive are those of the source. Calls come from the whole dose curve; as a rule, active = well fitted cell-killing curve with a large enough effect; inconclusive = small, poorly fitted or top-dose-only effect; inactive = no such curve, though single readings can be large or run the other way.

Experiment: qHTS Screen for Compounds that Selectively Target Cancer Cells with p53 Mutations: Cytotoxicity of p53 Null Cells at the Nonpermissive Temperature;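 note: 0% = DMSO only and -100% = full killing by 100 µM tamoxifen; nearly all actives have a fitted effect of over 50% in size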
Conditions: H1299 p53-null (neo) cells, 39C, ATPlite viability, 24 h; at 46.1 µM (top of the series)
Source text: NIH Chemical Genomics Center [NCGC] NIH Molecular Libraries Screening Centers Network [MLSCN] MLSCN Grant: 1 X01 MH079844-01 Assay Submitter (PI): Dr. SUN, YI, University of Michigan NCGC Assay Overview: Synthetic Lethal Screen for Compounds to Kill Cancer Cells with p53 Mutation. Tumor suppressor gene p53 serves as a major cellular barrier against tumorigenesis. […] The goal of this screening is to identify small molecule probes that selectively kill cancer cells with mutations in p53. This screening was carried out using two lines of H1299 lung cancer cells. The H1299-p53 A138V line express a temperature sensitive p53 mutant (p53ts) in which the mutant p53 protein (A138V) is in the mutant confirmation when grown at 39C (the nonpermissive temperature) and in the wild type conformation when grown at 32C (the permissive temperature). A H1299-neo line (p53 null) grown at both 39C and 32C were used as counter-screens to filter out false positive associated with temperature shifting. The small molecular compounds that selectively target mutant p53-containing cancer cells were selected as candidate probes for further study. A cytotoxicity assay based on the measurement of ATP contents in cells was used in this screen. Concentration-responses of all the compounds in the library collection were determined in qHTS using the cell lines and temperature conditions as above.
NCGC Assay Protocol Summary: Both the H1299-p53A138V and H1299-neo cell lines were provided by Dr.Yi Sun, a PI at the University Michigan. The cells were maintained and cultured at 37C. The resuspended frozen cells were used to plate the cells in the 1536-well assay plates at a density of 600 cells per well in 5 ul medium. The assay plates with the cells were incubated at 37C for 16 to 30 hours before the experiments. The library compounds in DMSO solution were added to the cells in assay plates and incubated 24 hours at 39C (for mutant p53 conformation) or 32C (for normal p53 conformation as control). An ATP_lite assay kit (PerkinElmer) was used to determine the cell viability. Tomaxifen (100uM) was used as the positive control for cell killing. Data were normalized to the controls for basal activity (DMSO only) and 100% killing (100uM tamoxifen). AC50 values were determined from concentration-response data modeled with the standard Hill equation. P53 assay protocol: 1. Reagent; 5 uL H1299-p53A138V or H1299-neo cell cells/well 2. Time; overnight; 37C incubation 3. Compounds; 23 nL; 5.9 nM to 46 uM 4. Controls; 23 nL; Tamoxifen 100 uM 5. Time; 24 hr; 39C incubation 6. Reagent; 3 uL; ATP_Lite reagent 7. Time; 20 min; Room Temperature 8. Detection; Luminescence; Viewlux plate reader Keywords: p53, synthetic lethal, cancer, cell viability, cytotoxicity, H1299 cell line, luminescence, MLSMR, MLSCN, NIH Roadmap, qHTS, NCGC

**Q.** For `Cc1cccc(C)c1OP(C)(=O)Nc1ccc(SC(F)(F)F)cc1` (centres undefined), which activity, negative = cell killing is on record?
**A.** inactive: -0.176%

**Q.** With `Cc1cc(C)cc(OP(C)(=O)Nc2ccc(SC(F)(F)F)cc2)c1` (centres undefined) as the compound, how does the activity, negative = cell killing read?
**A.** inactive: -22.5%

**Q.** With `CP(=O)(Nc1ccc2c(c1)OCCO2)Oc1ccccc1` (centres undefined) as the compound, how does the activity, negative = cell killing read?
**A.** inactive: 0.0646%

**Q.** Which activity, negative = cell killing does the source give for `CCN(CC)CCCOC(=O)C(O)(c1ccccc1)C1CCCCC1` (centres undefined) here?
**A.** inactive: 10.8%
